Assay results from patent US9926281B2 (priority 2014, dated 2018).
Read-outs that look alike come from different tables or passages of the source.

By UniProt entry, the sequences of proteins in these tests, tags left out. Residues count along the entry.
UniProt P03956, 100-469: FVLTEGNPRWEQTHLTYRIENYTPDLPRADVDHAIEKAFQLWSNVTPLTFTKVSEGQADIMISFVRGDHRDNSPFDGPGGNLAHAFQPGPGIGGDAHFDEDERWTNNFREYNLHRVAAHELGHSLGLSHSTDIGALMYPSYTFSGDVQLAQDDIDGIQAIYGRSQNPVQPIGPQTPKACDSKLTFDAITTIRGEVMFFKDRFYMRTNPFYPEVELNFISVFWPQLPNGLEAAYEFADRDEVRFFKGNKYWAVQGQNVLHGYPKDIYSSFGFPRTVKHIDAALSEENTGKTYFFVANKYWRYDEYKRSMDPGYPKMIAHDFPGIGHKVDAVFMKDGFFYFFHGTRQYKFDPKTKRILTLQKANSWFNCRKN
UniProt P08253, 110-660: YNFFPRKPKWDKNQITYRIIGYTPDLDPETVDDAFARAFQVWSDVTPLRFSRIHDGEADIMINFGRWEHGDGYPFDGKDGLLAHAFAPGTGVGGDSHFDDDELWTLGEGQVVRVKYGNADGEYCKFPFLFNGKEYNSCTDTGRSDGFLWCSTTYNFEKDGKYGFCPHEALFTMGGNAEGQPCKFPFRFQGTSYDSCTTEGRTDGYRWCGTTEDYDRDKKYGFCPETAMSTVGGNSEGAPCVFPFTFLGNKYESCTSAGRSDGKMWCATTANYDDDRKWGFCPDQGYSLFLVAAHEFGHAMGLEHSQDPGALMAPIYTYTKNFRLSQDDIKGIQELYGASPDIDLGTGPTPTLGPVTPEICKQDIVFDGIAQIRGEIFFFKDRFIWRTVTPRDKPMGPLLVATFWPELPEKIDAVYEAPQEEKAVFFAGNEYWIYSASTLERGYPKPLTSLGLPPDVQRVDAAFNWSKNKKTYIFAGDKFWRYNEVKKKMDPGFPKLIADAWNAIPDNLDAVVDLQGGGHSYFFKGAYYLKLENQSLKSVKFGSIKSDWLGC
UniProt Q9UNA0, 262-930: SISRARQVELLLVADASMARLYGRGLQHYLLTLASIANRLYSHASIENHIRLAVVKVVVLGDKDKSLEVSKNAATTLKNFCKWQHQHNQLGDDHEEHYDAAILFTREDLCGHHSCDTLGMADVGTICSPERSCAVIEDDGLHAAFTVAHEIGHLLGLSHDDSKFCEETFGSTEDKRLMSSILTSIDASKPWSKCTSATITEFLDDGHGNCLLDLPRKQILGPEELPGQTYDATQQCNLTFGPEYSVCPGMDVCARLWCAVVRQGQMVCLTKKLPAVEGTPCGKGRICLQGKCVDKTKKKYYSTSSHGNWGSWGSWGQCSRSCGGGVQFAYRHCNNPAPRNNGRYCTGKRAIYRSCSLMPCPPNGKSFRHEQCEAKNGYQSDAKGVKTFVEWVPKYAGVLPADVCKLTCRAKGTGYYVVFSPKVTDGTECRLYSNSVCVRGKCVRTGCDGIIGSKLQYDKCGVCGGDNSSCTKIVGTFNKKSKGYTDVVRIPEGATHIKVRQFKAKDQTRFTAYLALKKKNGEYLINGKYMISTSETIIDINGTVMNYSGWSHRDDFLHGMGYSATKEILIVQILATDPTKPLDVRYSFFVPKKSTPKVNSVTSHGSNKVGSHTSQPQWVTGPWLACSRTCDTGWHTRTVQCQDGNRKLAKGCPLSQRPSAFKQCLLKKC
UniProt P78536, whole entry, looked up, stated change not applied: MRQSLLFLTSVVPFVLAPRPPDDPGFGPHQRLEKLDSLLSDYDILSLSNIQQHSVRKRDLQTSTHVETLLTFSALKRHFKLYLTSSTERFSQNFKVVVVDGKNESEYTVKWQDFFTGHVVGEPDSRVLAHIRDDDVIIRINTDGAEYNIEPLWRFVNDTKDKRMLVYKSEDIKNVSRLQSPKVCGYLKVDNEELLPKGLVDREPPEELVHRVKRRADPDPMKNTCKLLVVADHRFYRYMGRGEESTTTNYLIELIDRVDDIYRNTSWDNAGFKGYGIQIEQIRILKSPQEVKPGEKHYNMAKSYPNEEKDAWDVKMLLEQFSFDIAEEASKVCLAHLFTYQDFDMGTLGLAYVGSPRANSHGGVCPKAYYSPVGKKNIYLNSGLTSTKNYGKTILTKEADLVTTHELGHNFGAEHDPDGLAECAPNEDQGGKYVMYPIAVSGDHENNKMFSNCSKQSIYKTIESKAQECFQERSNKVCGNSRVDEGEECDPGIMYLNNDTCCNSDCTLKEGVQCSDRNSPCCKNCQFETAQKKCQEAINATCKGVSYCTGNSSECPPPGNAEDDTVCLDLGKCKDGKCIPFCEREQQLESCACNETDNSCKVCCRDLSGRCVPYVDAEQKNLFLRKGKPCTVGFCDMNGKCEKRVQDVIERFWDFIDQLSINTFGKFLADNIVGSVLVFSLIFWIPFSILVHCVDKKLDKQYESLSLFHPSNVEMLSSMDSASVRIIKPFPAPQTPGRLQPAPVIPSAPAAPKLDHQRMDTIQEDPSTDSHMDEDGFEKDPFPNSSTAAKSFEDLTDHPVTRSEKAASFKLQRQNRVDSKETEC

Assays:
human MMP1 = human MMP1 (Homo sapiens (Human), UniProt P03956); settings: read-out: hMMP-1 potency IC50
human MMP2 = human MMP2 (Homo sapiens (Human), UniProt P08253); test: biochemical
human MMP13 = human MMP13 (Homo sapiens (Human), UniProt P45452); settings: read-out: hMMP-13 potency IC50
human ADAMTS-5 [1] = target: T1, human ADAMTS-5 (Homo sapiens (Human), UniProt Q9UNA0); settings: read-out: hADAMTS-5 potency IC50
human TACE = human TACE (Homo sapiens (Human), UniProt P78536); settings: read-out: TACE potency IC50
human MMP14 = human MMP14 (Homo sapiens (Human), UniProt P50281); settings: read-out: hMMP-14 potency IC50
human ADAMTS-5 [2] = target: T1, human ADAMTS-5; settings: read-out: hADAMTS-5 potency IC50; remark: listed apart in the source

O=C1NC(=O)C(CCC(=O)N2CCN(c3cc(Cl)cc(Cl)c3)CC2)(C2CC2)N1 (stereo not shown) [compound 55, 5-cyclopropyl-5-[3-[4-(3,5-dichlorophenyl)piperazin-1-yl]-3-oxo-propyl]imidazolidine-2,4-dione] showed an IC50 (human MMP1) greater than 30 µM.
For COCC1(CC(C)C(=O)N2CCN(c3cncc(F)c3)[C@@H](C)C2)NC(=O)NC1=O (stereo partly drawn) [compound 364, 5-[3-[(3S)-4-(5-fluoro-3-pyridyl)-3-methyl-piperazin-1-yl]-2-methyl-3-oxo-propyl]-5-(methoxymethyl)imidazolidine-2,4-dione], the IC50 (human MMP2) was greater than 20 µM.
COCCOCC1(CC(C)C(=O)N2CCN(c3cc(Cl)cc(Cl)c3)[C@@H](C)C2)NC(=O)NC1=O (stereo partly drawn) [compound 426, 5-(3-((S)-4-(3,5-dichlorophenyl)-3-methylpiperazin-1-yl)-2-methyl-3-oxopropyl)-5-((2-methoxyethoxy)methyl)imidazolidine-2,4-dione] showed an IC50 (human MMP13) greater than 4 µM.
Work on CC(C)c1cc(N2CCN(C(=O)CC[C@@]3(C)NC(=O)NC3=O)C[C@@H]2C)ccc1Cl [compound 468, (5R)-5-[3-[(3S)-4-(4-chloro-3-isopropyl-phenyl)-3-methyl-piperazin-1-yl]-3-oxo-propyl]-5-methyl-imidazolidine-2,4-dione] yielded an IC50 (human ADAMTS-5 [1]) greater than 4 µM, an IC50 (human TACE) greater than 4 µM and an IC50 (human MMP14) greater than 20 µM.
With C[C@H]1CN(C(=O)CCC2(c3ccc(C(F)(F)F)nc3)NC(=O)NC2=O)CCN1c1cc(F)cc(F)c1 (stereo partly drawn) [compound 335, 5-[3-[(3S)-4-(3,5-difluorophenyl)-3-methyl-piperazin-1-yl]-3-oxo-propyl]-5-[6-(trifluoromethyl)-3-pyridyl]imidazolidine-2,4-dione] the IC50 (human MMP2) was greater than 20 µM.
Work on CCc1cc(N2CCN(C(=O)C(C)CC3(COC)NC(=O)NC3=O)C[C@@H]2C)ccc1Cl (stereo partly drawn) [compound 481, 5-[3-[(3S)-4-(4-chloro-3-ethyl-phenyl)-3-methyl-piperazin-1-yl]-2-methyl-3-oxo-propyl]-5-(methoxymethyl)imidazolidine-2,4-dione] yielded an IC50 (human ADAMTS-5 [1]) of 0.029 µM and an IC50 (human TACE) of 3.95 µM.
CCc1cc(N2CCN(C(=O)CCC3(CCC(=O)O)NC(=O)NC3=O)C[C@@H]2C)ccc1Cl (stereo partly drawn) [Cpd 477, 3-[4-[3-[(3S)-4-(4-chloro-3-ethyl-phenyl)-3-methyl-piperazin-1-yl]-3-oxo-propyl]-2,5-dioxo-imidazolidin-4-yl]propanoic acid] showed an IC50 (human ADAMTS-5 [1]) of 0.239 µM, an IC50 (human TACE) greater than 20 µM and an IC50 (human MMP14) greater than 20 µM.
CCc1cc(N2CCN(C(=O)CCC3(CC(=O)O)NC(=O)NC3=O)C[C@@H]2C)ccc1Cl (stereo partly drawn) [Cpd 471, 2-[4-[3-[(3S)-4-(4-chloro-3-ethyl-phenyl)-3-methyl-piperazin-1-yl]-3-oxo-propyl]-2,5-dioxo-imidazolidin-4-yl]acetic acid] was tested, and the IC50 (human ADAMTS-5 [1]) was 0.852 µM.
Work on CCc1cc(N2CCN(C(=O)CCC3(CCC(=O)OC(C)(C)C)NC(=O)NC3=O)C[C@@H]2C)ccc1Cl (stereo partly drawn) [compound 475, tert-butyl 3-[4-[3-[(3S)-4-(4-chloro-3-ethyl-phenyl)-3-methyl-piperazin-1-yl]-3-oxo-propyl]-2,5-dioxo-imidazolidin-4-yl]propanoate] yielded an IC50 (human ADAMTS-5 [1]) of 0.307 µM, an IC50 (human TACE) of 2.65 µM and an IC50 (human MMP14) greater than 4 µM.
In the case of C[C@H]1CN(C(=O)CCC2(c3ccccn3)NC(=O)NC2=O)CCN1c1ccc(F)c(Cl)c1 (stereo partly drawn) [compound 457, 5-[3-[(3S)-4-(3-chloro-4-fluoro-phenyl)-3-methyl-piperazin-1-yl]-3-oxo-propyl]-5-(2-pyridyl)imidazolidine-2,4-dione], the IC50 (human TACE) is reported as greater than 4 µM.
Compound C[C@H]1CN(C(=O)CCC2(C3CC3)NC(=O)NC2=O)CCN1c1cccc2c1cnn2C (stereo partly drawn) [compound 333, 5-cyclopropyl-5-[3-[(3S)-3-methyl-4-(1-methylindazol-4-yl)piperazin-1-yl]-3-oxo-propyl]imidazolidine-2,4-dione] has an IC50 (human MMP2) greater than 20 µM.
Work on CN(C)CCC1(CCC(=O)N2CCN(c3cccc(Cl)c3)CC2)NC(=O)NC1=O (stereo not shown) [compound 44, 5-[3-[4-(3-chlorophenyl)piperazin-1-yl]-3-oxo-propyl]-5-(2-dimethylaminoethyl)imidazolidine-2,4-dione] yielded an IC50 (human ADAMTS-5 [2]) of 0.553 µM.
For Cc1ccc(Cl)cc1N1CCN(C(=O)CCC2(C3CC3)NC(=O)NC2=O)CC1 (stereo not shown) [compound 36, 5-[3-[4-(5-chloro-2-methyl-phenyl)piperazin-1-yl]-3-oxo-propyl]-5-cyclopropyl-imidazolidine-2,4-dione], the IC50 (human MMP1) was 30 µM.
For CC1(CCC(=O)N2CCN(c3cc(Cl)cc(Cl)c3)CC2)NC(=O)NC1=O (stereo not shown) [compound 40, 5-[3-[4-(3,5-dichlorophenyl)piperazin-1-yl]-3-oxo-propyl]-5-methyl-imidazolidine-2,4-dione], the IC50 (human MMP1) was greater than 30 µM.
Work on Cc1ccccc1N1CCN(C(=O)CC[C@@]2(c3ccccc3)NC(=O)NC2=O)CC1 [compound 27, (5S)-5-[3-[4-(o-tolyl)piperazin-1-yl]-3-oxo-propyl]-5-phenyl-imidazolidine-2,4-dione] yielded an IC50 (human MMP1) of 30 µM.
